Data published in US7931880B2, “Production of silver sulfate grains using inorganic additives” (Eastman Kodak Company, priority 2007, dated 2011).

Key:
[1] = cited from earlier work
[2] = relatively low temperature (about 170° C.) melt of a polyolefin

In the case of sodium chlorite [NaClO2], the “Additive Silver Solubility” value ([1]; silver salt of the additive anion) is given as 0.28 g/100 mL and the “Additive Sulfate Solubility” value ([1]; sulfate salt of the additive cation) is given as 7.7 g/100 mL.

For silver laurylsulphate, the “discoloration in polymer melt” value [2] was “extremely discolored”.
